The results in this text go back to patent publication US9517252B2, “p53 activating peptides” (Agency for Science, Technology and Research, priority 2011, dated 2016).

One test deals with p53-R273H-FL (Homo sapiens, UniProt P04637, R273H). Nature of the test: ELISA peptide-mutant p53 interaction (p53 IVT-translated with biotinylated peptide). It counts as binding.
In a further test the target is T1, Np53 R273H-Δ22 (Homo sapiens, UniProt P04637, R273H).
T1 construct: made in house; host or cells: cell-free Novagen EcoPro bacterial lysate IVT, used unpurified
Briefly: qPCR Nano tagged p53-DNA binding assay (Novagen IVT). It counts as biochemical. The note with it: 200 μM peptide.

Another test concerns P53G245S-FL or -Δ22. Nature of the test: qPCR p53-DNA binding plate assay, antibody capture (Cosmo IVT). It is filed as biochemical, human. The note with it: translated with 1, 10 or 100 μM peptide.
In test [1] the test system is H1299 cells expressing G245S, R273H or R248Q mutant p53. Briefly: Stabilization of p53 targets (western blot). It is filed as cell-based, human. The note with it: Tat-conjugated peptides, 5, 20 or 50 uM.
The mark [2] stands for this setting: 25 μM peptide, Bp53-10.1 antibody.
The mark [3] stands for this setting: p53 mutant R273H (Pap-TAL: R273H/G245S).

Take VRHQHVGATILGWK [Pap-VRH]: in the test with p53-R273H-FL (setting [2]), the “fold binding over 200 μM 'peptide-only' control” value is 10 fold and the “fold binding over 'no-p53' control” value is given as ~18 fold. Moreover, in the test with p53-R273H-FL (200 μM peptide, DO-1), the “background peptide binding in absence of p53 (peptide only control), interaction with DO-1 antibody” value is “high levels of background peptide binding”. Further, in the test with p53-R273H-FL (setting [3]), the “Binding preference for peptide terminal (level)” value is listed as “No”, the “Lowest effective concentration” value was 25 µM and the Maximum fold binding stood at 18 fold. For the same substance, the “RE-binding, PUMA-BS2 RE only” value with Np53 R273H-Δ22 is on record as “appreciable increase in RE-binding”.

Consider M P H L M A C [Pap-MPH], for which the “sequence-specific DNA binding to p21 3′ site and PUMA-BS2 REs” value in the test on P53G245S-FL or -Δ22 was “little to no sequence-specific DNA binding”.

On to S P T T N H [Pap-SPT], for which, in test [1], the “stabilization of p53 protein targets” value was “weakly active”. In addition, in the test on P53G245S-FL or -Δ22, the “sequence-specific DNA binding to p21 3′ site and PUMA-BS2 REs” value is reported as “little to no sequence-specific DNA binding”.
